As a reminder, the Ki is the dissociation constant of the complex between target and ligand, obtained from inhibition or displacement. In general, EC50 refers to the concentration giving half of the maximal effect. The low end stands for higher potency in that assay, the high end for lower potency in that assay.

Amino acid sequences for entries named in this document (tags omitted).
UniProt P14416, whole entry: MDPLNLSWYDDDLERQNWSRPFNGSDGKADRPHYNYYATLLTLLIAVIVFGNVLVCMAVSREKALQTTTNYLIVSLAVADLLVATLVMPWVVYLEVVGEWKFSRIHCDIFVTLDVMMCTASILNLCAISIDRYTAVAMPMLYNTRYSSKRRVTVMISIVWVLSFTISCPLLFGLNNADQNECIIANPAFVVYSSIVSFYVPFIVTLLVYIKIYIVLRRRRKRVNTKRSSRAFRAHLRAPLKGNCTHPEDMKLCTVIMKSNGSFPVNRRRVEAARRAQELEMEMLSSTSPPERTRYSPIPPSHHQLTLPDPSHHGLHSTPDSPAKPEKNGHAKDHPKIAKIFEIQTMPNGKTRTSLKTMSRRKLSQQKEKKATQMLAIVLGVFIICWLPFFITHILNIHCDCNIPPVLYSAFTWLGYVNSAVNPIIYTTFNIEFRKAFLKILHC
UniProt P35462, whole entry: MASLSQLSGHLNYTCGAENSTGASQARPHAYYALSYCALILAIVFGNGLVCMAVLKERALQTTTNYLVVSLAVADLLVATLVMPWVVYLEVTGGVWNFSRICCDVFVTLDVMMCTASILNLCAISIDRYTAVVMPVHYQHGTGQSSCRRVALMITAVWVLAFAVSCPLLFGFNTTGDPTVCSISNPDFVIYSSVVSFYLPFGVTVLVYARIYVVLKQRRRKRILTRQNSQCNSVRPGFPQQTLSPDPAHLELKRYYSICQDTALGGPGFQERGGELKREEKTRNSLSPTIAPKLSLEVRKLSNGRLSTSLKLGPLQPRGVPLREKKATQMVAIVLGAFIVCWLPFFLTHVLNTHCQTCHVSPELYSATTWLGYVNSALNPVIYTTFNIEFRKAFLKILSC

Ki and EC50 data for one compound are collected here from ChEMBL document CHEMBL1134894, “Fused azaindole derivatives: molecular design, synthesis and in vitro pharmacology leading to the preferential dopamine D3 receptor agonist FAUC 725” (Bioorg Med Chem Lett, 2002).

The target in assay [1] is T1, D(2) dopamine receptor (Homo sapiens, UniProt P14416). As to the kind of experiment: Binding affinity of compound measured using [3H]spiperone for the cloned human dopamine receptor D2 long (high/low affinity is given as 9.0/1800).
The target in assay [2] is T2, D(3) dopamine receptor (Homo sapiens, UniProt P35462). As to the kind of experiment: Effective concentration required for agonistic activity against human D3 receptor. Type of assay: functional.
Assay [3] addresses T1, D(2) dopamine receptor. As to the kind of experiment: Binding affinity of compound measured using [3H]spiperone for the cloned human dopamine receptor D2 short (high/low affinity is given as 27/1800).
In assay [4] the target is T2, D(3) dopamine receptor. As to the kind of experiment: Binding affinity of compound measured using [3H]-spiperone for the cloned human Dopamine receptor D3 (high/low affinity is given as 25/1600).

As to `CCCN1CCC[C@@H](c2cccc(O)c2)C1` [PRECLAMOL], the inhibition constant Ki on D(2) dopamine receptor [1] stood at 9 nM; at D(2) dopamine receptor [3], 27 nM; at D(3) dopamine receptor [4], 25 nM. This compound also came in with an EC50 at D(3) dopamine receptor [2] of 9.8 nM.
